Structures can show the parent of a compound that is named as a salt.
Experiment: Acute toxicity in rat
Conditions: in vivo, po, male, 7 days
Protocol: (6) Acute toxicity in mouse and rat
Each ten male and female ICR-JCL strain mice and Sprague-Dawley-JCL strain rats were used for each dose.
Each test compound was given to animals in a form of suspension in 0.5% methyl cellose intraperitoneally, subcutaneously and orally. After administration, the incidence of the death was recorded for successive seven days. LD50 values were calculated by the method of Litchfield-Wilcoxon method.

Compound: O=C(Cn1c(=O)sc2ccc(Cl)cc21)N1CCN(CCO)CC1 [Compound D, 3-[4-(2-hydroxyethyl)-1-piperazinylcarbonylmethyl]-5-chloro-2-benzothiazolinone hydrochloride]
- LD50 at 168 h: 3600 mg/kg
